Measurements from US11795163B2, “Compound for inhibiting nicotinamide phosphoribosyltransferase and composition containing same” (CHECKMATE THERAPEUTICS INC., priority 2016, dated 2023).

Chains of the proteins cited; added tags and fusions are not shown. Lines headed by an entry give the natural chain unless they say otherwise; changes in a name come on top.
UniProt P43490: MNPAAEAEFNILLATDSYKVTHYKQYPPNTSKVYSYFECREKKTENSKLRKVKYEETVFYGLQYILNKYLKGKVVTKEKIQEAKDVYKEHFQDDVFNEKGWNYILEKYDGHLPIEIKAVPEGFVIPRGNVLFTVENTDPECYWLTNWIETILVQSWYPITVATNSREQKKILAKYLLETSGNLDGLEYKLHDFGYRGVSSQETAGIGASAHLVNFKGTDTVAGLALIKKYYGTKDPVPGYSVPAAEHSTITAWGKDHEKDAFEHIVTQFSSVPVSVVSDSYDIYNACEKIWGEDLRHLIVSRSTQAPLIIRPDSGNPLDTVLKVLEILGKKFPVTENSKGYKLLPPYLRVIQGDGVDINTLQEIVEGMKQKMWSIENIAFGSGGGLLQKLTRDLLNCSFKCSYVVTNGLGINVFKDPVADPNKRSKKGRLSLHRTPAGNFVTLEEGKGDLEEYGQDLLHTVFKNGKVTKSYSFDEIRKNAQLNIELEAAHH

Target: NamPT recombinant protein (Homo sapiens, UniProt P43490)

**Q.** `O=C(/C=C/c1cccnc1)NCCCCC1CCN(C(=O)c2ccccc2)CC1` [FK866, N-[4-(1-benzoyl-4-piperidinyl)butyl]-3-(3-pyridinyl)-2E-propenamide] was tested. Which “reversible or irreversible inhibition of NamPT” value did it give?
**A.** Its value is “irreversible inhibition”.

**Q.** What about the NamPT inhibition (4 nM (diluted 5 times)) of the same compound?
**A.** The NamPT inhibition was “not inhibited”.

**Q.** And the NamPT inhibition (20 nM)?
**A.** The NamPT inhibition was “full inhibition capacity”.

Like-named read-outs stand apart in the source and are kept apart here.
